Drawing on PubChem BioAssay AID588493 (Sanford-Burnham Center for Chemical Genomics, 2011), this text covers inhibition for 72 molecules.

Chains of the proteins cited; added tags and fusions are not shown.
UniProt O00487, whole entry, looked up: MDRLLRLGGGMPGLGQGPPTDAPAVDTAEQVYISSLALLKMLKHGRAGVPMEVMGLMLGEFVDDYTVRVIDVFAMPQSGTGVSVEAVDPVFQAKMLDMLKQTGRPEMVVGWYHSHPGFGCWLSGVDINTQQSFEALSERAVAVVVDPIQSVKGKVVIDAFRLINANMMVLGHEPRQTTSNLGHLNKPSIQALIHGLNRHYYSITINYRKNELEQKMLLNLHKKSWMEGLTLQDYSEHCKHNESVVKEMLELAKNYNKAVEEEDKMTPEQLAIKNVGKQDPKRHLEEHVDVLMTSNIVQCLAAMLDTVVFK

A word on the inhibition: it is the relative decrease from the control value, in per cent.

Only a part is listed here, and it is no random draw. Active and inactive are the calls of the source.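 The calls were made as follows: active = inhibition at 20 µM, scaled to each plate's controls, above about 33% (limit read from the data); inactive = the rest.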

In this assay the target is 26S proteasome non-ATPase regulatory subunit 14 (Homo sapiens) (UniProt O00487). The experiment in a line: Rpn11 (PSMD14) deubiquitinase inhibitors, primary screen, biochemical, fluorescence polarization, uHTS (AID 588493). The following applies: human 26S proteasome, Ub4-pepOG fluorescence polarization; at 20 µM; stronger effect = higher value; 20S core pre-blocked with epoxomicin.
On to `Cc1cc(=O)[nH]c(N[N+](=O)[O-])n1`, for which the inhibition is inactive: -2.3%. Consider `Cc1c2c(nc3ccccc13)SC(C(Cl)Cl)C2` (configuration not stated), for which the inhibition was inactive: -3.2%.

On to `COc1ccc(N/C(=N/P(=O)(N2CCOCC2)N2CCOCC2)N2CCOCC2)cc1`, for which the inhibition is inactive: -3.7%.

With `O=[N+]([O-])c1cc(Oc2ccc([N+](=O)[O-])cc2C(F)(F)F)cc([N+](=O)[O-])c1`, the inhibition was inactive: 2.7%. As for `O=C(COc1ccccc1)OC1CN2CCC1CC2` (configuration not stated), the figure is inactive: -8.9%. As to `O=C(Nc1ccncc1[N+](=O)[O-])c1ccc([N+](=O)[O-])cc1[N+](=O)[O-]`, the inhibition was inactive: 3%. As for `O=C(O)C(=O)c1ccc(N(CCCl)CCCl)cc1`, the figure is inactive: -0.2%; as for `COP1(=S)c2c(C)nn(CCC#N)c2N=C(c2ccc(F)cc2)N1C` (configuration not stated), inactive: -1.8%.

For `COC(=O)C1(C)COP(=O)(N2CCCC2)OC1` (configuration not stated), the inhibition is inactive: -1.1%.

Regarding `CCC(C)N(CC(C)C)C(=S)SC(NC(C)=O)C(Cl)(Cl)Cl` (configuration not stated), the inhibition was inactive: 1%. The result for `CCOC(=O)c1ccc(NC(=O)C(C)(CCl)SC)cc1` (configuration not stated) reads inactive: -1.2%; that for `O=C(OC1CN2CCC1CC2)c1cccc([N+](=O)[O-])c1` (configuration not stated), inactive: -0.3%. The result for `CSc1ccc(Nc2c([N+](=O)[O-])cc([N+](=O)[O-])cc2[N+](=O)[O-])cc1` reads inactive: -6.5%. Regarding `CCCCOc1ccc(C(=O)NCC2(N3CCCCC3)CCCCC2)cc1OC`, the inhibition was inactive: 12%.

As for `Cc1cc(SC(NC(=O)c2ccccc2)C(Cl)(Cl)Cl)nc(C(C)C)n1` (configuration not stated), the inhibition was inactive: -1.1%. As for `COP(=O)(OC)N1CC1c1ccccc1` (configuration not stated), the inhibition is inactive: -3.1%.

As to `CC1CCNP(=O)(N(CCCl)CCCl)O1` (configuration not stated), the inhibition is inactive: -2.3%. In the case of `O=C(O)C(O)c1ccc(N(CCCl)CCCl)cc1` (configuration not stated), the inhibition was inactive: -13.7%. With `CCOC(=O)Nc1ccc([As](=O)(O)O)c(O)c1`, the inhibition is inactive: -3.9%. Take `O=[N+]([O-])c1ccc(Nc2ccc(Oc3ccc([N+](=O)[O-])cc3[N+](=O)[O-])cc2)c([N+](=O)[O-])c1`: the inhibition was inactive: -6.1%. In the case of `Cc1cc(SC(NC=O)C(Cl)(Cl)Cl)ncn1` (configuration not stated), the inhibition is inactive: -5.6%. Consider `O=P(Nc1ccccn1)(c1cccc2ccccc12)c1cccc2ccccc12`, for which the inhibition is inactive: 10.6%.

Turning to `CCOC(=O)Nc1cccc([As](=O)(O)O)c1`, the inhibition was inactive: -0.6%. Regarding `O=C(/C=C/c1ccccc1)OC1CN2CCC1CC2` (configuration not stated), the inhibition is inactive: 1%. Regarding `CCCC1OP(=O)(Nc2ccccc2)OCC1CC` (configuration not stated), the inhibition is inactive: -2.4%. Take `CN(C)C1(CNC(=O)c2ccc(S(C)(=O)=O)cc2)CCCCC1`: the inhibition is inactive: -3.4%. As for `Cc1nn(-c2ccccc2)c2c1P(=O)(N1CCOCC1)N(C)C(c1ccccc1)=N2` (configuration not stated), the figure is inactive: -2.9%; as for `Cc1ccc(C(=O)OC2CN3CCC2CC3)cc1` (configuration not stated), inactive: 0.5%; as for `CC1CCC(C(C)C)C(OP(=O)(Nc2ccccn2)c2ccccc2)C1` (configuration not stated), inactive: -1.1%. With `O=[As](O)(c1cccs1)c1cccs1`, the inhibition is inactive: -3.7%.

For `Cc1ccc(OCC(=O)OC2CN3CCC2CC3)cc1` (configuration not stated), the inhibition was inactive: -1.8%.

Take `NS(=O)(=O)c1cccc(NC(=O)COC(=O)C(O)(c2ccccc2)c2ccccc2)c1`: the inhibition was inactive: -2%. For the molecule `O=P1(Nc2ccc(Br)cn2)COc2ccccc2OC1`, the inhibition was inactive: -5.1%.

In the case of `Nc1cccc([As](=O)(O)c2ccccc2)c1`, the inhibition was inactive: 7.6%. Take `O=P1(Nc2ncccn2)COc2ccccc2OC1`: the inhibition was inactive: -0.5%.

With `Cc1ccc(S(=O)(=O)N(CCCN)CCCc2c(C)nc(N)[nH]c2=O)cc1`, the inhibition was inactive: -8.9%. Take `Clc1n[nH]nc1-c1nn[nH][15n]1`: the inhibition is inactive: -0.8%.

On to `O=P1(N(CCCl)CCCl)NCCC(C(F)(F)F)O1` (configuration not stated), for which the inhibition is inactive: -3.2%. For the molecule `CC(C)(C)C(=O)NC(Sc1ncccn1)C(Cl)(Cl)Cl` (configuration not stated), the inhibition is inactive: 4.4%.

As for `CCOP(=O)(Nc1ccc(C)cn1)OCC`, the inhibition was inactive: 0.3%. As to `CN(CCCl)Cc1cc(Cl)c(NC2=NCCN2)c(Cl)c1`, the inhibition was inactive: -1.7%.

`CCC1=CC2Cc3nc4ccc(Cl)cc4c(N)c3C(C1)C2` (configuration not stated): the inhibition was inactive: -26.9%.

`O=P1(Nc2ccccn2)COc2ccccc2OC1`: the inhibition is inactive: -8.4%.

As for `CCOP(=O)(NC(=NC(C)c1ccccc1)NC(C)c1ccccc1)OCC` (configuration not stated), the inhibition was inactive: -9.5%. As to `CC1(CBr)Cn2c(nc3ccccc3c2=O)S1` (configuration not stated), the inhibition is inactive: -9.9%.

For the molecule `CN(C(=O)Cc1ccc(Cl)c(Cl)c1)[C@@H]1CCCC[C@H]1N1CCCC1`, the inhibition was inactive: -3.7%.

`CC(C)/C=N\N=C(\N)N[N+](=O)[O-]`: the inhibition was inactive: 1.6%. Regarding `COc1ccccc1CNC(=O)COC(=O)C(O)(c1ccccc1)c1ccccc1`, the inhibition is inactive: -3.7%. As for `Cc1cccc(OCC(=O)OC2CN3CCC2CC3)c1` (configuration not stated), the figure is inactive: 2%; as for `O=[As](O)(c1cccc(O)c1)c1cccc(O)c1`, inactive: -11.8%.

On to `O=[As](O)(O)c1cccnc1`, for which the inhibition is inactive: 2.8%. In the case of `COc1cc(C(=O)NCC2(N3CCOCC3)CCCCC2)cc(Cl)c1OC(C)C`, the inhibition was inactive: 2.9%. The result for `CS(=O)(=O)c1ccc(Cl)c(NC(=O)COC(=O)C(O)(c2ccccc2)c2ccccc2)c1` reads inactive: 6.6%; that for `O=C(OC1CN2CCC1CC2)c1ccc(Cl)cc1` (configuration not stated), inactive: 5.2%; that for `COc1cc(C2NCCC3(OCCO3)C2(C)C)cc(OC)c1OC` (configuration not stated), inactive: -1.6%. Turning to `CCOP(=O)(Nc1cccc2ccccc12)OCC`, the inhibition was inactive: -8.5%. On to `CCCOP(=S)(Nc1nc(N)cc(=O)[nH]1)OCCC`, for which the inhibition was inactive: 12.2%.

Consider `Nc1cccc2c([As](=O)(O)O)cccc12`, for which the inhibition was inactive: 11.5%.

Regarding `Cc1ccc(NCCc2c([N+](=O)[O-])cc([N+](=O)[O-])cc2[N+](=O)[O-])cc1`, the inhibition is inactive: 4.2%.

Turning to `O=C(O)COc1ccc([As](=O)(O)O)cc1[N+](=O)[O-]`, the inhibition was inactive: 5%. As for `Nc1ccccc1[As](=O)(O)c1ccccc1`, the figure is inactive: -3.3%; as for `CS(=O)(=O)c1cc([N+](=O)[O-])c2no[n+]([O-])c2c1`, inactive: -0.1%.

`CCOP1(=S)c2c(C)nn(CCC#N)c2N=C(c2ccccc2F)N1C` (configuration not stated): the inhibition was inactive: 9.1%. On to `O=P(Nc1nccs1)(Oc1ccccc1)Oc1ccccc1`, for which the inhibition was inactive: -2.6%. `O=P(Nc1nccs1)(c1ccccc1)c1nc2ccccc2s1` (configuration not stated): the inhibition was inactive: -6.5%. In the case of `O=[N+]([O-])c1ccc2c(c1)nnn2O`, the inhibition was inactive: -0.1%. With `CN(C)C(=O)c1cc([N+](=O)[O-])cc2c1-c1c(cc([N+](=O)[O-])cc1[N+](=O)[O-])C2=O`, the inhibition is inactive: -6.1%. The result for `CN(C(=O)Cc1ccc(Cl)c(Cl)c1)[C@H]1CC[C@@]2(CCCO2)C[C@@H]1N1CCCC1` reads inactive: 0.8%; that for `N#CCCN(C(=O)COC(=O)C(O)(c1ccccc1)c1ccccc1)c1ccc(F)cc1`, inactive: -9.9%. With `CN(C(=O)Cc1ccccc1)[C@@H]1CC[C@]2(CCCO2)C[C@H]1N1CCCC1`, the inhibition is inactive: 3.3%. For `CCOP1(=S)c2c(C)nn(CCC#N)c2N=C(c2ccc(F)cc2)N1C` (configuration not stated), the inhibition was inactive: -10.2%. `NC(=O)Nc1ccc([As](=O)(O)O)cc1`: the inhibition was inactive: -6.5%.
